According to patent US10610564B2, “IRGM and precision autophagy controls for antimicrobial and inflammatory disease states and methods of detection of autophagy” (STC.UNM, priority 2015, dated 2020):

Tested on: autophagy
Assay: Autophagy assays identifying autophagy modulators
Type: cell-based

SMILES: Oc1c(Cl)cc(Cl)c(Cl)c1Cc1c(O)c(Cl)cc(Cl)c1Cl [hexachlorophene]
- activity as autophagy modulator: agonists or inducers of autophagy
